{"sequences": {"note": "Sequences of proteins named here, by UniProt entry; tags and fusion partners are left off. Residues count along the entry.", "UniProt P07949, 29-1114, species assumed": "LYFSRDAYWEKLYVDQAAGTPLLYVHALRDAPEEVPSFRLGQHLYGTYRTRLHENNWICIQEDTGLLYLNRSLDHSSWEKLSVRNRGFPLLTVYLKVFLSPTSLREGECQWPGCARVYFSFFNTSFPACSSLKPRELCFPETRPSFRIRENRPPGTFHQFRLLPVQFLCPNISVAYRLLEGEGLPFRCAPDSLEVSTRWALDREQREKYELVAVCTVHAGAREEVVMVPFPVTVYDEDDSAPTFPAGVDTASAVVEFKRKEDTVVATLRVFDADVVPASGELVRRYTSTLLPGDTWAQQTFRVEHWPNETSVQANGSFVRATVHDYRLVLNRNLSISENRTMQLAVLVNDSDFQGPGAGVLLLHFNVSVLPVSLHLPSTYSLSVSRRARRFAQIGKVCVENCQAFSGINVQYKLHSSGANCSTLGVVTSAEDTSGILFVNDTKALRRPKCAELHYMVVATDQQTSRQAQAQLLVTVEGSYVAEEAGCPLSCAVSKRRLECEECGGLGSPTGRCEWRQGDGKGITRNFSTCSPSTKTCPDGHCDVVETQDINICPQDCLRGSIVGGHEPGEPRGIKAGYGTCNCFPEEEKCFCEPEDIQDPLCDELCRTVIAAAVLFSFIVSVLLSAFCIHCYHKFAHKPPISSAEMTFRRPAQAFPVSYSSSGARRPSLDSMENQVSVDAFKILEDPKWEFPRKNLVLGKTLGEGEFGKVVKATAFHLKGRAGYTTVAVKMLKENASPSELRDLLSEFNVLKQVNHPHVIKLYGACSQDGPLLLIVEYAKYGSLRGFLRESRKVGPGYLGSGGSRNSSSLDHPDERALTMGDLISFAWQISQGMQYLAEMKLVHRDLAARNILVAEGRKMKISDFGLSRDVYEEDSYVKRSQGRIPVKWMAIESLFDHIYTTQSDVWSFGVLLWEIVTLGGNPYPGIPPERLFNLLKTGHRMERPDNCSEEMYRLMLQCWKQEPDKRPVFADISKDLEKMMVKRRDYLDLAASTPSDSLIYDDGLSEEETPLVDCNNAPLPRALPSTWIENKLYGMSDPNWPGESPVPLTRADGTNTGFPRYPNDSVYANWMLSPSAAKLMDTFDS"}, "source": "patent US10689361B2", "about": "“Quinoline derivative and use thereof” (priority 2016, dated 2020)", "biological_target": "RET (Homo sapiens, UniProt P07949)", "assay": "Caliper Mobility Shift Assay, kinase inhibition", "assay_type": "biochemical", "settings": "read-out: Kinase inhibitory activity (IC50, nM) RET", "procedure": "The semi-inhibitory concentration IC50 (the concentration of the compound required to inhibit the enzymatic activity to 50%) of a compound was measured by mixing a fixed enzyme with a specific substrate and the test compound of different concentrations. The test method used was Caliper Mobility Shift Assay, the kinases tested were VEGFR1, VEGFR2, VEGFR3, FLT3, PDGFRα, PDGFRβ, FGFR1, RET, EGFR and IGF1R, and the standard reference compound used was staurosporine."}
{"smiles": "CNC(=O)c1cc(Oc2ccc(NC(=O)Nc3ccc(Cl)c(C(F)(F)F)c3)c(F)c2)ccn1", "note": "[Regorafenib, regorafenib, reference compound]", "values": [{"measurement": "IC50", "value": 35, "unit": "nM"}]}
